From the Kinase Knowledgebase extract (Sharma et al. 2016) come the findings set out here.

By UniProt entry, the sequences of proteins in these tests, tags left out.
UniProt P00533, whole entry, looked up: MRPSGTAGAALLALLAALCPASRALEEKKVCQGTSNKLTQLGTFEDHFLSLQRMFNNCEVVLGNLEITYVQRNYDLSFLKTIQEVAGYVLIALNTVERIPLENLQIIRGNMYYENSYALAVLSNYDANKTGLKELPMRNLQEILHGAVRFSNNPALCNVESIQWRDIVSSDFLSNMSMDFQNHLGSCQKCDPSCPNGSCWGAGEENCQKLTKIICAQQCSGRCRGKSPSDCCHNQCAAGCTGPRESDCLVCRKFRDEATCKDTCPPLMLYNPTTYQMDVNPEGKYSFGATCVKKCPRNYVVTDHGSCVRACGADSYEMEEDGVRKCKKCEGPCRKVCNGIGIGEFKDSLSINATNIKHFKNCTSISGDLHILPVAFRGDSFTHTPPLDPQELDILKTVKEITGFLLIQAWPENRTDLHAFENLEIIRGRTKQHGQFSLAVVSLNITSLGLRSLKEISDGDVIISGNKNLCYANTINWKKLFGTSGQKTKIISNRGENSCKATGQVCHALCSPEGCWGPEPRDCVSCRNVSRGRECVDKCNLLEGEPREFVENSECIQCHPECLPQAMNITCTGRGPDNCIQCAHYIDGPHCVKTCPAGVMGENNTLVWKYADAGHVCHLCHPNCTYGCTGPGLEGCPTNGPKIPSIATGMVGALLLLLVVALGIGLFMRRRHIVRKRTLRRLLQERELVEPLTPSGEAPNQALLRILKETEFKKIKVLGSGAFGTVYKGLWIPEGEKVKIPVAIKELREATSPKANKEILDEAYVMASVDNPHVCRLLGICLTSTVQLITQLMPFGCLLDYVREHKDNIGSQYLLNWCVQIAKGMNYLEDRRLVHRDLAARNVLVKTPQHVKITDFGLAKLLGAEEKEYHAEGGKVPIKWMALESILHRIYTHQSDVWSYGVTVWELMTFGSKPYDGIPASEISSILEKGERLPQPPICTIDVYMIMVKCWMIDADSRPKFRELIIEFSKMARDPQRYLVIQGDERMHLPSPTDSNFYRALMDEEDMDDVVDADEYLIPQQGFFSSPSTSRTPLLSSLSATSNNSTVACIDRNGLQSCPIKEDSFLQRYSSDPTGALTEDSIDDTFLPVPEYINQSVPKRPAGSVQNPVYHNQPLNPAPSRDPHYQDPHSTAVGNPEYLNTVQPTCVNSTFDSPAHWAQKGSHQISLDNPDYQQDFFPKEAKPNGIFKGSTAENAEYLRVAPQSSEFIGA

This experiment concerns the target EGFR (UniProt P00533). Briefly: Inhibition of EGFR Kinase Activity.

For `COc1cc2ncnc(Nc3cccc(F)c3)c2cc1OC`, the IC50 is 3.8 nM. `COc1cc2ncnc(Nc3cccc(Cl)c3)c2cc1OC` returned an IC50 of 0.3 nM.

As usually defined, the IC50 is the concentration that gives 50% inhibition. Lower therefore signals higher potency.
